# In US20130217664A1, “NOVEL COMPOUNDS USEFUL FOR THE TREATMENT OF DEGENERATIVE AND INFLAMMATORY DISEASES” (priority 2012, published 2013):
# Amino acid sequences for entries named in this document (tags omitted). Residues count along the entry.
# UniProt P23458, 866-1154 limits assumed: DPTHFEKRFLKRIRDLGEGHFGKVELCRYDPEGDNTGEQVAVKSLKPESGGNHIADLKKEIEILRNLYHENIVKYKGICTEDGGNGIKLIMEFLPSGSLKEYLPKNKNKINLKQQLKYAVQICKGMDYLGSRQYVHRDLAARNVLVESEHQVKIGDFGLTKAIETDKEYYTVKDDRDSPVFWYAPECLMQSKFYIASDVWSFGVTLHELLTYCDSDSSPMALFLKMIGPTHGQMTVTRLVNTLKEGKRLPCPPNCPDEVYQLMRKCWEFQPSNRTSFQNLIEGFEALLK
# UniProt O60674, 808-1132 limits assumed: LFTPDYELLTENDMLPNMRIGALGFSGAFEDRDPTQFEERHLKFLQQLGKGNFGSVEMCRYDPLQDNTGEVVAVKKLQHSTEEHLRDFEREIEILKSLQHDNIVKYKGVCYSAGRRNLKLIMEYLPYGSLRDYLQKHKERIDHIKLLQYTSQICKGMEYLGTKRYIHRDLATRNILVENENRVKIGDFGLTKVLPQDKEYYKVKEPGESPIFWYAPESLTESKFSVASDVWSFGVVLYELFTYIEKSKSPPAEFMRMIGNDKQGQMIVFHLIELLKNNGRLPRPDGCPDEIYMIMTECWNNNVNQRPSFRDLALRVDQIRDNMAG
# UniProt P52333, 781-1124 limits assumed: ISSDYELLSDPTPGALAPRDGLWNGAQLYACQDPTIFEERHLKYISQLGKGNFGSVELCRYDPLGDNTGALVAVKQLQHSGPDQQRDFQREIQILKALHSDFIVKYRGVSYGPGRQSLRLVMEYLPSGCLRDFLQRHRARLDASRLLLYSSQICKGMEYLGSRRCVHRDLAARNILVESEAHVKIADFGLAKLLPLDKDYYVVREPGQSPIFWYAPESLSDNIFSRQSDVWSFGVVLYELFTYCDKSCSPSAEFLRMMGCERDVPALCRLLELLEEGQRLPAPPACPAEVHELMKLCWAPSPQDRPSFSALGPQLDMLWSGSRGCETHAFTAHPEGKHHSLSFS
# UniProt P29597, 871-1187 limits assumed: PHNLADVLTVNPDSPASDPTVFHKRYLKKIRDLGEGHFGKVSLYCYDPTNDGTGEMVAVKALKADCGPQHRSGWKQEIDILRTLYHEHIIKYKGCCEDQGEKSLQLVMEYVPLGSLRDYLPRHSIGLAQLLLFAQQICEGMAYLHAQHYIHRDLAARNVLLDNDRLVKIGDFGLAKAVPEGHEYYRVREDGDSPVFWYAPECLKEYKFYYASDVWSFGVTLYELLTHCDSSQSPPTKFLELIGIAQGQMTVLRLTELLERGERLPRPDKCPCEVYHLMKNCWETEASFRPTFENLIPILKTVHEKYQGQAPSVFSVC
# pIC50: −log10 of the molar value.
# Key:
# human JAK1 = human JAK1 (Homo sapiens, UniProt P23458); assay: JAK1 inhibition assay (polyGT substrate / Ulight-JAK1 peptide); type: biochemical; conditions: read-out: JAK1 IC50; recombinant human JAK1 catalytic domain; polyGT or Ulight-JAK1 peptide assay
# [1] = test system: pSTAT1(2)-luciferase reporter in HeLa cells triggered with human OSM; assay: JAK-STAT signalling assay; type: cell-based; conditions: read-out: JAK-STAT IC50, human OSM 33 ng/mL
# BA/F3 cell line = assay: BA/F3 viability assay; conditions: read-out: BA/F3 IC50; IL-3 dependent BA/F3 cells, 48 h, ATP content (ATP-lite)
# human JAK2 = human JAK2 (Homo sapiens, UniProt O60674); assay: JAK2 inhibition assay (polyGT substrate / Ulight-JAK1 peptide); type: biochemical; conditions: read-out: JAK2 IC50; recombinant human JAK2 catalytic domain; polyGT or Ulight-JAK1 peptide assay
# human JAK3 = human JAK3 (Homo sapiens, UniProt P52333); assay: JAK3 inhibition assay; type: biochemical; conditions: read-out: JAK3 IC50; recombinant human JAK3 catalytic domain; polyGT substrate
# human TYK2 = human TYK2 (Homo sapiens, UniProt P29597); assay: TYK2 inhibition assay; type: biochemical; conditions: read-out: TYK2 IC50; recombinant human TYK2 catalytic domain, polyGT substrate
# CTLL-2 cell line = assay: CTLL2 viability assay; conditions: read-out: CTLL2 IC50; IL-2 dependent CTLL2 viability, 24 h, ATP-lite
Structure (SMILES),pIC50 (human JAK1),pIC50 [1],pIC50 (BA/F3 cell line),pIC50 (human JAK2),pIC50 (human JAK3),pIC50 (human TYK2),pIC50 (CTLL-2 cell line)
CN(c1ccc2nsnc2c1)c1cc2c(cn1)ncn2C,< 6.00,,,,,,
CCNC(=O)N1CCC(c2ccc(N(C)c3cc4c(cn3)ncn4C)c(CC)c2)CC1,,6.30 to 9.00,,,,,
CN(c1cc2c(cn1)ncn2C)c1ccc(C2CN(S(C)(=O)=O)C2)cc1OC(F)F,7.00 to 11.00,,5.30 to 6.00,7.00 to 11.00,7.00 to 11.00,6.30 to 7.00,< 6.00
